For this experiment, the system named is guinea pig trachea. As to the kind of experiment: In-vitro functional assay, guinea pig trachea contracted with carbachol. As to conditions: isolated tissue, carbachol as agonist.

Turning to `CCCC[N+]12CCC(CC1)[C@@H](OC(=O)C(O)(c1cccs1)C1CCC(F)(F)C1)C2.[Br-]` (stereo partly shown), the pKb entry was “about 9.5”.

The values above are taken from US20090326004A1, “MUSCARINIC RECEPTOR ANTAGONISTS” (published 2009).
